Experimental data taken from publication PMC7689490, “Designed CXCR4 mimic acts as a soluble chemokine receptor that blocks atherogenic inflammation by agonist-specific targeting” (Nature Communications, 2020).
“And” between values parts separate entries of the source, which are not always exact repeats. Equal entries are not always repeated.

Target: Fluos-msR4M-LS (human), P61073
Experiment: other fluorescence titration; 5 nM Fluos-labeled ectodomain peptide titrated with unlabeled MIF, MIF peptide or CXCL12; 10 mM sodium phosphate, pH 7.4, 1% HFIP; emission at 522 nm; apparent KD, 1/1 binding model; one constant for each of three curves
Conditions: remark: other sources report otherwise

B1: macrophage migration-inhibitory factor (MIF), recombinant human, P14174 1-115 (natural protein)
chain: MPMFIVNTNVPRASVPDGFLSELTQQLAQATGKPPQYIAVHVVPDQLMAFGGSSEPCALCSLHSIGKIGGAQNRSYSKLLCGLLAERLRISPDRVYINYYDMNAANVGWNNSTFA
modifications: here or on the partner: disulfide bridge from Cys-109 to Cys-186 of the ECL2 chain; C-terminal amide; Fluos label on the molecule (chain and position not stated) | disulfide bridge from Cys-186 to Cys-109 of the ECL1 chain; C-terminal amide
For B1, the Kd was 6.6 nM and 6.8 nM.
